Experimental data published in patent US9234005B2 (priority 2011, dated 2016).

Chains of the proteins cited; added tags and fusions are not shown. Residues count along the entry.
UniProt P29074, 499-604 S499G limits assumed: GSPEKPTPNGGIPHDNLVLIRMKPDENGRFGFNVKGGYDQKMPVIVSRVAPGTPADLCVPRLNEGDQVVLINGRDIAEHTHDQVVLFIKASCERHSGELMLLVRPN

Columns and labels:
[1] = system: U373MG astrocytoma cells; format: cell-based, human
[2] = target: PTPN4-PDZ (Homo sapiens, UniProt P29074, S499G); test: NMR titration of peptide affinity for PTPN4-PDZ; format: binding; conditions: for Kd: read-out: Kd for PTPN4-PDZ (dissociation constant, text), NMR titration

| SMILES | capacity to trigger death compared to parent peptide GluN2A-16 ([1]; 3 h peptide treatment) | factor by which affinity for PTPN4-PDZ dropped compared to the native GluN2A peptide [2] | Kd [2] [µM] | cell death (% of dead cells among peptide loaded cells) ([1]; 25 microM Tat-conjugated FITC peptide, 3 h, PI) [%] | fold increase in affinity for PTPN4-PDZ compared to Cyto13-att (Cyto-att) [2] [fold] | fold increase in affinity for PTPN4-PDZ compared to GluN2A-16 [2] [fold] |
| --- | --- | --- | --- | --- | --- | --- |
| CC(C)[C@H](NC(=O)[C@H](CC(=O)O)NC(=O)[C@H](CO)NC(=O)[C@H](CCC(=O)O)NC(=O)CNC(=O)CNC(=O)[C@H](CO)NC(=O)[C@H](CCCCN)NC(=O)[C@H](Cc1c[nH]cn1)NC(=O)[C@H](CO)NC(=O)[C@H](CCC(=O)O)NC(=O)[C@H](Cc1c[nH]c2ccccc12)NC(=O)[C@@H](N)CO)C(=O)O | decreased by half | 2 | 85 |  |  |  |
| CC(C)[C@H](NC(=O)[C@H](CCC(=O)O)NC(=O)[C@@H](NC(=O)[C@H](CCC(=O)O)NC(=O)[C@H](CCCNC(=N)N)NC(=O)CNC(=O)[C@H](CO)NC(=O)[C@H](CCCCN)NC(=O)[C@H](Cc1c[nH]cn1)NC(=O)[C@H](CO)NC(=O)[C@H](CCC(=O)O)NC(=O)[C@H](Cc1c[nH]c2ccccc12)NC(=O)[C@@H](N)CO)[C@@H](C)O)C(=O)O |  |  | 1 | 66 | 160 | 40 |
